The record followed here is publication PMC8869358, “High-Throughput Chemical Screening and Structure-Based Models to Predict hERG Inhibition” (Biology, 2022).

Amino acid sequences for entries named in this document (tags omitted). A change or cut given only in a name is not applied to a line headed by its entry.
UniProt Q12809: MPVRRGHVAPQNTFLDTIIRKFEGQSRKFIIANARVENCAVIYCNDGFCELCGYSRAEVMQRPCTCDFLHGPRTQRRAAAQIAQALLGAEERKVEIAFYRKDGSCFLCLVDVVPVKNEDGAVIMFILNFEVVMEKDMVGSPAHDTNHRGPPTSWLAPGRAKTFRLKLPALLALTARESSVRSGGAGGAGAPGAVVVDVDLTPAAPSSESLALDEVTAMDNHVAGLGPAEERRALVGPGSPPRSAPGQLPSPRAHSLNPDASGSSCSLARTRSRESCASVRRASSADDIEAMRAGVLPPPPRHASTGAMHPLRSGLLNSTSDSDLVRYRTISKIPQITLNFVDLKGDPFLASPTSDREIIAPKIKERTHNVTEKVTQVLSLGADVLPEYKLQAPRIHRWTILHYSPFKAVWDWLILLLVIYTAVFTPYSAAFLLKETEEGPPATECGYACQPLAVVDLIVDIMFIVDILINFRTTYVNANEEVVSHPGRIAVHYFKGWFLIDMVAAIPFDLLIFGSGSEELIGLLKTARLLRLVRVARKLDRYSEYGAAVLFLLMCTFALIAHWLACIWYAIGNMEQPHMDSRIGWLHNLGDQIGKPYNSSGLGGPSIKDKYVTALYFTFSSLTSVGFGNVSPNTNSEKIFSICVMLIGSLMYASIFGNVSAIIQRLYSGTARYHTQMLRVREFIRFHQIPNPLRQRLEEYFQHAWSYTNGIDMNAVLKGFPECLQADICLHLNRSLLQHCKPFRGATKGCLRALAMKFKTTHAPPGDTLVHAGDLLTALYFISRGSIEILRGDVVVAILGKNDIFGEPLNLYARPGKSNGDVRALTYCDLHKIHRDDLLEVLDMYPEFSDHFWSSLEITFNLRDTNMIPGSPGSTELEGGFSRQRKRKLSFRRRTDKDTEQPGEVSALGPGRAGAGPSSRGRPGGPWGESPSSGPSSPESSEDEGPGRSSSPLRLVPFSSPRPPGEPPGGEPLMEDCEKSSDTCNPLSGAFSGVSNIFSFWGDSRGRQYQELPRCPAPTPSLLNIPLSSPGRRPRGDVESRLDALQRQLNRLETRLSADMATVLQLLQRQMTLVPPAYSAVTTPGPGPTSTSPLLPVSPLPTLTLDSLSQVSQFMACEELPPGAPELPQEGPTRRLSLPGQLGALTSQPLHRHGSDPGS

Like-named read-outs stand apart in the source and are kept apart here.

This test has as its target hERG (Homo sapiens, UniProt Q12809). The note with it: inhibitor.

As to Spiradoline, the “(-LOG10(IC50), µM)” value is recorded as 4.655 M.

For Bensulide, the “(-LOG10(IC50), µM)” value (human, fluxor ii thallium influx herg) worked out at 4.385 M.
